# Experimental data reported in patent US20250388534A1, “SUPRAMOLECULAR TRANEXAMIC ACID-MANDELIC ACID IONIC SALT AS WELL AS PREPARATION METHOD THEREFOR AND USE THEREOF” (SHENZHEN SHINEHIGH INNOVATION CO., LTD., priority 2022, published 2025).
# Experiments:
# melanoma cells (B16) = test: Cytotoxicity test by melanoma cells (B16); type: cell-based
# [1] = Transdermal effect test, Franz cell method, cumulative permeation amount; details: 10 wt % supramolecular ionic salt solution, mouse skin
substance,measurement,setting,value
supramolecular tranexamic acid-citric acid ionic salt [Comparative Example 1],Cell viability (%),melanoma cells (B16); 0.0006 % m/V,81.32%
same,Cell viability (%),melanoma cells (B16); 0.0012 % m/V,80.58%
same,Cell viability (%),melanoma cells (B16); 0.002 % m/V,80.01%
same,Cell viability (%),melanoma cells (B16); 0.005 % m/V,71.95%
same,Cell viability (%),melanoma cells (B16); 0.010 % m/V,70.74%
same,Cell viability (%),melanoma cells (B16); 0.020 % m/V,72.19%
same,Cell viability (%),melanoma cells (B16); 0.039 % m/V,75.13%
same,Cell viability (%),melanoma cells (B16); 0.078 % m/V,75.85%
same,Permeation amount,[1],11300 µg
